IC50 data for one molecule are collected here from US5670510A, “Pyridyl substituted spirodienes for the treatment of inflammation” (G. D. Searle & Co., priority 1996, dated 1997).

This test has as its system COX II. The note with it: read-out: COX II ID50; arachidonic acid 10 μM; pH 8.0; pre-incubated 10-20 minutes. The protocol:
The COX II inhibition activity of the compounds of this invention illustrated in the Examples was determined by the following methods.
Recombinant baculoviruses were isolated by transfecting 4 μg of baculovirus transfer vector DNA into SF9 insect cells ([…]) along with 200 ng of linearized baculovirus plasmid DNA by the calcium phosphate method. […] Exp. Station Bull. 1555 (1987). Recombinant viruses were purified by three rounds of plaque purification and high titer (10E7-10E8 pfu/ml) stocks of virus were prepared. For large scale production, SF9 insect cells were infected in 10 liter fermentors (0.5×10^6 /ml) with the recombinant baculovirus stock such that the multiplicity of infection was 0.1. After 72 hours the cells were centrifuged and the cell pellet homogenized in Tris/Sucrose (50 mM: 25%, pH 8.0) containing 1% 3-[(3-cholamidopropyl)dimethylammonio]-1-propanesulfonate (CHAPS). The homogenate was centrifuged at 10,000×G for 30 minutes, and the resultant supernatant was stored at -80° C. before being assayed for COX activity.
COX activity was assayed as PGE2 formed/μg protein/time using an ELISA to detect the prostaglandin released. […] The PGE2 formed was measured by standard ELISA technology (Cayman Chemical).

As to `CS(=O)(=O)c1ccc(C2=CC3(C=C2c2ccc(F)cc2)CC3)cc1` [Example 1, 5-(4-Fluorophenyl)-6-[4-(methylsulfonyl)phenyl]spiro[2.4]hepta-4,6-diene], the IC50 is less than 0.1 µM.
